Source: patent publication US10072299B2, “Antibodies against epidermal growth factor receptor (EGFR) and uses thereof” (Merrimack Pharmaceuticals, Inc., priority 2011, dated 2018)

Columns and labels:
Format in all cases: cell-based, human
[1] = system: total EGFR (tEGFR) in DU-145 cells; test: EGF receptor down-regulation in DU-145 cells (immunoblot); details: DU-145 cells, 2, 6 or 24 hours; 50 nM (IgG trio, cetuximab) or 100 nM (Fab trio)
Description: To prepare cell lysates, H1975 cells are trypsinized, harvested, counted, and plated in 6 well dishes at 1×10^6 cells per well and incubated overnight to allow attachment to the culture plate. […] Cells are lysed with 100 μl of Mammalian Protein Extraction Reagent (Pierce, cat#78505). Protein extraction reagent is supplemented with PhosSTOP (Roche, cat#04906837001) and Protease Inhibitor Cocktail tablets (Roche, cat#04693124001). […] Following transfer of proteins to a nitrocellulose membrane, nonspecific sites are blocked by incubation with Odyssey blocking buffer (LI-COR, cat#927-400-00) for one hour at room temperature. Membranes are incubated as required with mouse monoclonal anti-EGFR (1F4—labeling tEGFR; Cell Signaling, cat#2239); rabbit monoclonal anti-phospho44/42 MAPK (Erk1/2, Thr202/Tyr204, D13.14.4E—labeling pERK; Cell Signaling, cat#4370); rabbit monoclonal anti-phosphoAKT (Ser473, 193H12; Cell Signaling, cat#4058); rabbit monoclonal phospho-c-Jun (Ser73, D47G9—labeling p-c-Jun; Cell Signaling, cat#3270) and rabbit anti-PCNA (FL-261) (Santa Cruz Biotechnology, cat# sc-7907). […] Bands are detected using LI-COR Odyssey Infrared Imaging System and analyzed using Odyssey software. […]

[2] = system: HCC827 cells; test: CellTiter-Glo cell viability assay, HCC827; details: 1% FCS, CTG
Description: (§1) Inhibition of cellular proliferation of cells expressing EGFR is examined in vitro as follows: HCC827 and H1975 cancer cells are seeded in 96 well tissue culture plates at 5,000 cells per well and grown in RPMI-1640 medium supplemented with antibiotics, 2 mM L-glutamine and 10% fetal calf serum (FCS) for 24 hours at 37° C. and 5% carbon dioxide. […] Cell viability is measured using the CellTiter-Glo® (CTG) Luminescent Cell Viability Assay (Promega Corporation, cat# G7572) according to manufacturer's instructions. The CTG assay measures the number of viable cells in culture based upon quantitation of ATP present, which is an indicator of metabolically active cells. Control treatments include cells treated with RPMI-1640 with antibiotics, 2 mM L-glutamine, 1% FCS in the presence (referred to as “+EGF” or “+AREG”) or absence (referred to as “−EGF” or “−AREG”) of 50 ng/mL EGF or 200 ng/ml AREG.
(§2) Inhibition of tumor cell proliferation in vitro was analyzed by the methods described above or minor variations thereof. […] FIGS. 9A-9D show inhibition of cell proliferation using CellTiter-Glo® (CTG) Luminescent Cell Viability Assay (Promega Corporation) that measures the number of viable cells in culture based upon quantitation of ATP present, which is an indicator of metabolically active cells. […]

[3] = system: H1975 cells; test: CellTiter-Glo cell viability assay, H1975; details: 1% FCS, CTG
Description: as §1, §2

## cetuximab: commercially available pharmaceutical anti-EGFR antibody (Bristol-Myers Squibb)
[1]
  down-regulation of EGFR: did not lead to observable down-regulation of EGFR
[2]; 50 ng/mL EGF
  inhibition of growth of HCC827 cells, EGF ligand: not
[2]; 200 ng/ml AREG
  inhibition of growth of HCC827 cells, AREG ligand: potent inhibition of growth
[3]; 50 ng/mL EGF
  inhibition of growth of H1975 cells, EGF ligand: not
[3]; 200 ng/ml AREG
  inhibition of growth of H1975 cells, AREG ligand: potent inhibition of growth
